Where two headings read alike, the source gives them in different places.
Key:
[1] = Drug dissociation test: polysaccharide derivative in buffer solution, 36°C, 1 week, HPLC; assay type: physicochemical
Description: In the examples relating to drug dissociation test, the drug dissociation ratio was evaluated as described below.
Sodium dihydrogen phosphate dihydrate (780 mg (5.0 mmol)) was dissolved in 500 mL of distilled water to give a liquid A. Separately, disodium hydrogen phosphate dodecahydrate (1.79 g (5.0 mmol)) was dissolved in 500 mL of distilled water to give a liquid B. By mixing the liquid A and liquid B at ratio of 2:3, a phosphate buffer solution of pH 7.5 was prepared.
0.62 g (10 mmol) of boric acid and 0.75 g (10 mmol) of potassium chloride were weighed and dissolved in 500 mL of distilled water to give a liquid C. Separately, by diluting 0.1 N sodium hydroxide solution with distilled water (×10 dilution), a liquid D was prepared.
50 mL of the liquid C and 7 mL of the liquid D were added to a 100 mL mess flask, and according to dilution to 100 mL with distilled water, a borate buffer solution of pH 8.0 was prepared. Furthermore, 50 mL of the liquid C and 40 mL of the liquid D were added to a 100 mL mess flask, and according to mess-up to 100 mL with distilled water, a borate buffer solution of pH 9.0 was prepared.
Each polysaccharide derivative obtained from above was dissolved in a buffer solution at each pH so as to have a concentration of 5 mg/10 mL, and heated for 1 week in an incubator at 36° C. Then, the drug dissociation ratio during the incubation was evaluated every 24 hours by liquid chromatography (HPLC).
The evaluation was performed by measuring the ratio between the drug amount remained in a polysaccharide derivative and the dissociated drug amount according to use of a size exclusion chromatography column (manufactured by TOSOH, TSKgel α-6000, 7.8 mmI.D.×30 cm).
Detailed conditions for the liquid chromatography are as follows.
Analysis time: 40 minutes
Solution for elution: acetonitrile (for HPLC):physiological saline=1:2
Detector: UV detector (240 nm)

[2] = Persistent property of drug in pulmonary tissue of normal rat after intratracheal administration
[3] = Blood kinetics (plasma drug concentration) in normal rat after intratracheal administration; details: betamethasone in plasma
[4] = rat, in vivo, inhaled or intranasal
[5] = rat, in vivo, inhaled or intranasal; remark: listed apart in the source

Row | Substance | Dissociation ratio (%/day) ([1]; pH 7.4, 36°C) | drug dissociation ratio ([1]; pH 7.4, 36°C, day 0) [%] | drug dissociation ratio ([1]; pH 7.4, 36°C, day 1) [%] | drug dissociation ratio ([1]; pH 7.4, 36°C, day 2) [%] | drug dissociation ratio ([1]; pH 7.4, 36°C, day 3) [%] | drug dissociation ratio ([1]; pH 7.4, 36°C, day 4) [%] | drug dissociation ratio ([1]; pH 7.4, 36°C, day 5) [%] | drug dissociation ratio ([1]; pH 7.4, 36°C, day 6) [%] | drug dissociation ratio ([1]; pH 7.4, 36°C, day 7) [%] | Dissociation ratio (%/day) ([1]; pH 8.0, 36°C) | drug dissociation ratio ([1]; pH 8.0, 36°C, day 0) [%] | drug dissociation ratio ([1]; pH 8.0, 36°C, day 1) [%] | drug dissociation ratio ([1]; pH 8.0, 36°C, day 2) [%] | drug dissociation ratio ([1]; pH 8.0, 36°C, day 3) [%] | drug dissociation ratio ([1]; pH 8.0, 36°C, day 4) [%] | drug dissociation ratio ([1]; pH 8.0, 36°C, day 5) [%] | drug dissociation ratio ([1]; pH 8.0, 36°C, day 6) [%] | drug dissociation ratio ([1]; pH 8.0, 36°C, day 7) [%] | Dissociation ratio (%/day) ([1]; pH 7.5, 36°C) | drug dissociation ratio ([1]; pH 7.5, 36°C, day 0) [%] | further results
1 | Chondroitin Sulfate Introduced with High Amount of 21-β-Alanyl-Betamethasone [Compound ib] | 0.7 | 0.5 | 1.2 | 1.7 | 2.4 | 3.2 | 3.8 | 4.4 | 5.0 | 2.1 | 0.6 | 2.9 | 4.8 | 6.7 | 9.4 | 11.4 | 13.2 | 15.0 | – | – | –
2 | Chondroitin Sulfate Introduced with 21-(α-N-Acetyl)-Ornithyl-Betamethasone [Compound xiii] | 1.8 | – | – | – | – | – | – | – | – | 3.3 | – | – | – | – | – | – | – | – | 1.9 | 0.5 | drug dissociation ratio ([1]; pH 7.5, 36°C, day 1): 4.8%; drug dissociation ratio ([1]; pH 7.5, 36°C, day 2): 6.6%; drug dissociation ratio ([1]; pH 7.5, 36°C, day 3): 8.5%; drug dissociation ratio ([1]; pH 7.5, 36°C, day 4): 9.7%; drug dissociation ratio ([1]; pH 7.5, 36°C, day 5): 10.8%; drug dissociation ratio ([1]; pH 7.5, 36°C, day 6): 12.2%; drug dissociation ratio ([1]; pH 7.5, 36°C, day 7): 13.2%; Dissociation ratio (%/day) ([1]; pH 8.1, 36°C): 3.4 %/day; drug dissociation ratio ([1]; pH 8.1, 36°C, day 0): 0.7%; drug dissociation ratio ([1]; pH 8.1, 36°C, day 1): 7.5%; drug dissociation ratio ([1]; pH 8.1, 36°C, day 2): 11.2%; drug dissociation ratio ([1]; pH 8.1, 36°C, day 3): 14.1%; drug dissociation ratio ([1]; pH 8.1, 36°C, day 4): 17.2%; drug dissociation ratio ([1]; pH 8.1, 36°C, day 5): 19.7%; drug dissociation ratio ([1]; pH 8.1, 36°C, day 6): 21.8%; drug dissociation ratio ([1]; pH 8.1, 36°C, day 7): 23.9%
3 | Chondroitin Sulfate Introduced with 21-β-Alanyl-Betamethasone [Compound ia] | 0.8 | 0.0 | 0.8 | 1.5 | 2.3 | 3.2 | 4.0 | 4.6 | 5.3 | 2.4 | 0.0 | 2.9 | 5.2 | 7.7 | 10.6 | 12.8 | 14.8 | 16.7 | – | – | T1/2 (disappearance half life) ([2]; dissociated betamethasone in pulmonary tissue, intratracheal 100 μL of 3 mg/mL): 128.0 h; time after administration until which exposure of betamethasone was observed in pulmonary tissue ([2]; intratracheal, final evaluation time point 168 hours, lower limit for quantification 10 ng/g): 168 h; T1/2 [3]: 146.9 h; Tmax [4]: 4 h; Cmax [5]: 10.1 ng/mL; Tmax [5]: 4 h
4 | Chondroitin Sulfate Introduced with 21-β-Alanyl-Prednisolone [Compound xiv] | 2.3 | – | – | – | – | – | – | – | – | 5.4 | – | – | – | – | – | – | – | – | 2.3 | 0.3 | drug dissociation ratio ([1]; pH 7.5, 36°C, day 1): 3.4%; drug dissociation ratio ([1]; pH 7.5, 36°C, day 2): 5.7%; drug dissociation ratio ([1]; pH 7.5, 36°C, day 3): 8.1%; drug dissociation ratio ([1]; pH 7.5, 36°C, day 4): 10.4%; drug dissociation ratio ([1]; pH 7.5, 36°C, day 5): 12.4%; drug dissociation ratio ([1]; pH 7.5, 36°C, day 6): 14.5%; drug dissociation ratio ([1]; pH 7.5, 36°C, day 7): 16.3%; Dissociation ratio (%/day) ([1]; pH 8.1, 36°C): 5.4 %/day; drug dissociation ratio ([1]; pH 8.1, 36°C, day 0): 0.3%; drug dissociation ratio ([1]; pH 8.1, 36°C, day 1): 8.2%; drug dissociation ratio ([1]; pH 8.1, 36°C, day 2): 14.3%; drug dissociation ratio ([1]; pH 8.1, 36°C, day 3): 20.4%; drug dissociation ratio ([1]; pH 8.1, 36°C, day 4): 26.1%; drug dissociation ratio ([1]; pH 8.1, 36°C, day 5): 29.8%; drug dissociation ratio ([1]; pH 8.1, 36°C, day 6): 34.4%; drug dissociation ratio ([1]; pH 8.1, 36°C, day 7): 38.0%
5 | Chondroitin Sulfate Introduced with Betamethasone [Compound xxi] | 2.7 | – | – | – | – | – | – | – | – | 3.9 | – | – | – | – | – | – | – | – | 2.6 | 0.0 | drug dissociation ratio ([1]; pH 7.5, 36°C, day 1): 5.1%; drug dissociation ratio ([1]; pH 7.5, 36°C, day 2): 7.7%; drug dissociation ratio ([1]; pH 7.5, 36°C, day 3): 10.1%; drug dissociation ratio ([1]; pH 7.5, 36°C, day 4): 12.2%; drug dissociation ratio ([1]; pH 7.5, 36°C, day 5): 14.2%; drug dissociation ratio ([1]; pH 7.5, 36°C, day 6): 16.3%; drug dissociation ratio ([1]; pH 7.5, 36°C, day 7): 18.2%; Dissociation ratio (%/day) ([1]; pH 8.1, 36°C): 3.6 %/day; drug dissociation ratio ([1]; pH 8.1, 36°C, day 0): 0.0%; drug dissociation ratio ([1]; pH 8.1, 36°C, day 1): 7.2%; drug dissociation ratio ([1]; pH 8.1, 36°C, day 2): 10.2%; drug dissociation ratio ([1]; pH 8.1, 36°C, day 3): 13.8%; drug dissociation ratio ([1]; pH 8.1, 36°C, day 4): 17.0%; drug dissociation ratio ([1]; pH 8.1, 36°C, day 5): 20.8%; drug dissociation ratio ([1]; pH 8.1, 36°C, day 6): 23.2%; drug dissociation ratio ([1]; pH 8.1, 36°C, day 7): 25.4%
6 | Chondroitin Sulfate Introduced with 21-Glycyl-Betamethasone [Compound x] | 3.1 | 1.1 | 5.7 | 9.3 | 11.0 | 15.4 | 19.6 | 22.1 | 22.0 | 7.2 | 4.3 | 14.4 | 23.5 | 29.3 | 37.8 | 44.7 | 48.7 | 50.6 | – | – | –
7 | Chondroitin Sulfate Introduced with 21-Alanyl-Betamethasone [Compound ix] | 1.6 | 0.4 | 2.0 | 3.6 | 5.3 | 8.7 | 11.0 | 12.2 | 11.5 | 4.2 | 1.7 | 6.3 | 10.9 | 16.1 | 21.7 | 26.1 | 28.3 | 29.3 | – | – | –
8 | Chondroitin Sulfate Introduced with 21-Isoleucyl-Betamethasone [Compound xi] | – | 0.5 | 0.2 | 0.2 | 0.2 | 1.5 | 2.1 | 1.9 | 0.6 | – | 0.0 | 0.5 | 0.7 | 1.1 | 2.8 | 3.8 | 4.3 | 2.8 | – | – | –
